Molecules are shown by their SMILES. This is a selection; strong and weak results do not stand in their true shares. Activity calls are given as the source filed them.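 The calls were made as follows: active = inhibition of at least 50% at 20 µM; inactive = the rest.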

The values that follow come from PubChem BioAssay AID588405 (Sanford-Burnham Center for Chemical Genomics, 2011).

A short description of the test: inhibition of PEG-3 promoter activity – cell-based, HeLa, luciferase luminescence, primary screen (AID 588405). The following applies: HeLa PEG-Prom luciferase reporter, overnight, at 20 µM, hits give high values. (In general: Reporter assays use an easily measured gene product as a stand-in for the process of interest.)
`COc1ccccc1CNC(=O)COC(=O)C(O)(c1ccccc1)c1ccccc1`: the inhibition (as a rule, the drop in the measured response relative to a control, in per cent) is inactive: 14.3%.
The result for `O=P1(N(CCCl)CCCl)NCCC(C(F)(F)F)O1` (centres undefined) reads inactive: 9.73%.
As to `Clc1n[nH]nc1-c1nn[nH][15n]1`, the inhibition is inactive: 0.62%.
With `CC(C)(C)C(=O)NC(Sc1ncccn1)C(Cl)(Cl)Cl` (centres undefined) the figure was inactive: 9.97%; with `O=P1(Nc2ccccn2)COc2ccccc2OC1`, inactive: 8.33%; with `CCC1=CC2Cc3nc4ccc(Cl)cc4c(N)c3C(C1)C2` (centres undefined), active: 83.5%.
Consider `CCOP(=O)(NC(=NC(C)c1ccccc1)NC(C)c1ccccc1)OCC` (centres undefined), for which the inhibition was inactive: 12.7%.
The result for `CCOP(=O)(Nc1ccc(C)cn1)OCC` reads inactive: 11.2%; that for `CN(CCCl)Cc1cc(Cl)c(NC2=NCCN2)c(Cl)c1`, inactive: -6.88%.
With `COc1cc(C2NCCC3(OCCO3)C2(C)C)cc(OC)c1OC` (centres undefined), the inhibition is inactive: -6.04%.
With `CCOP(=O)(Nc1cccc2ccccc12)OCC` the figure was inactive: 15%; with `Cc1ccc(NCCc2c([N+](=O)[O-])cc([N+](=O)[O-])cc2[N+](=O)[O-])cc1`, inactive: -63.9%; with `Nc1cccc2c([As](=O)(O)O)cccc12`, inactive: 20.3%.
The result for `CCCOP(=S)(Nc1nc(N)cc(=O)[nH]1)OCCC` reads inactive: 4.04%; that for `Cc1cccc(OCC(=O)OC2CN3CCC2CC3)c1` (centres undefined), inactive: 1.29%.
With `O=[As](O)(c1cccc(O)c1)c1cccc(O)c1` the figure was inactive: 3.16%; with `O=C(OC1CN2CCC1CC2)c1ccc(Cl)cc1` (centres undefined), inactive: 1.53%; with `O=[As](O)(O)c1cccnc1`, inactive: 6.02%.
`COc1cc(C(=O)NCC2(N3CCOCC3)CCCCC2)cc(Cl)c1OC(C)C`: the inhibition was inactive: 9.81%.
As for `CS(=O)(=O)c1ccc(Cl)c(NC(=O)COC(=O)C(O)(c2ccccc2)c2ccccc2)c1`, the inhibition is inactive: 0.83%.
As to `N#CCCN(C(=O)COC(=O)C(O)(c1ccccc1)c1ccccc1)c1ccc(F)cc1`, the inhibition is inactive: 13.6%.
With `CCOP1(=S)c2c(C)nn(CCC#N)c2N=C(c2ccc(F)cc2)N1C` (centres undefined), the inhibition was inactive: 5.09%.
For `CN(C(=O)Cc1ccccc1)[C@@H]1CC[C@]2(CCCO2)C[C@H]1N1CCCC1`, the inhibition was inactive: -19.1%.
As for `O=[N+]([O-])c1ccc2c(c1)nnn2O`, the inhibition is inactive: 12.5%.
With `CN(C)C(=O)c1cc([N+](=O)[O-])cc2c1-c1c(cc([N+](=O)[O-])cc1[N+](=O)[O-])C2=O`, the inhibition is active: 113%.
With `CN(C(=O)Cc1ccc(Cl)c(Cl)c1)[C@H]1CC[C@@]2(CCCO2)C[C@@H]1N1CCCC1`, the inhibition was inactive: -22.9%.
`NC(=O)Nc1ccc([As](=O)(O)O)cc1`: the inhibition was inactive: -187%.
The result for `Nc1ccccc1[As](=O)(O)c1ccccc1` reads inactive: -7.44%; that for `O=C(O)COc1ccc([As](=O)(O)O)cc1[N+](=O)[O-]`, inactive: -14.4%; that for `CCOP1(=S)c2c(C)nn(CCC#N)c2N=C(c2ccccc2F)N1C` (centres undefined), inactive: 19.9%.
On to `O=P(Nc1nccs1)(Oc1ccccc1)Oc1ccccc1`, for which the inhibition is inactive: 8.25%.
With `O=P(Nc1nccs1)(c1ccccc1)c1nc2ccccc2s1` (centres undefined) the figure was inactive: -2.02%; with `CS(=O)(=O)c1cc([N+](=O)[O-])c2no[n+]([O-])c2c1`, inactive: -10.1%; with `CC(C)NC(=O)NP(=O)(Oc1ccccc1)Oc1ccccc1`, inactive: -2.9%.
Take `CCN(CC)C(=S)SC(NC=O)C(Cl)(Cl)Cl` (centres undefined): the inhibition is inactive: 11.6%.
For `O=C(OC1CN2CCC1CC2)c1cccc2[nH]cnc12` (centres undefined), the inhibition is inactive: 3.93%.
For `O=[N+]([O-])c1cc([N+](=O)[O-])c(-c2ccn[nH]2)s1`, the inhibition is inactive: 43.9%.
As to `ClCCSc1nnc(-c2cccnc2)o1`, the inhibition is inactive: -46.3%.
Turning to `COC(=O)C1(C)COP(=O)(N2CCCCCC2)OC1` (centres undefined), the inhibition is inactive: 10.7%.
In the case of `CC(C)c1ccc(OP(=O)(Nc2ccccn2)Oc2ccccc2F)cc1` (centres undefined), the inhibition was inactive: 8.88%.
Take `Cc1ccc(OP(=O)(Nc2ccc([N+](=O)[O-])cn2)Oc2ccc(C)cc2)cc1`: the inhibition is inactive: 2.82%.
With `Cc1ccc2nc3c(c(C)c2c1)CC(C(Cl)Cl)S3` (centres undefined), the inhibition is inactive: -250%.
The result for `O=[As](O)(c1ccc(O)cc1)c1ccccc1O` reads inactive: 4.89%; that for `C[As](=O)(O)c1cccc(C(=O)O)c1`, inactive: 3.25%; that for `O=[N+]([O-])c1ccc(-c2cc([N+](=O)[O-])c(O)c([N+](=O)[O-])c2)cc1`, inactive: 16.3%.
The result for `COc1cc(C(=O)NCC2(N3CCOCC3)CCCCC2)ccc1OCC(C)C` reads inactive: 24.1%.
For the compound `O=[N+]([O-])c1cc(Oc2ccc([N+](=O)[O-])cc2C(F)(F)F)cc([N+](=O)[O-])c1`, the inhibition is inactive: 4.98%.
With `COc1ccc(N/C(=N/P(=O)(N2CCOCC2)N2CCOCC2)N2CCOCC2)cc1` the figure was inactive: 17.3%.
Consider `O=P1(N(CCCl)CCCl)OCCCN1CCCl` (centres undefined), for which the inhibition was inactive: 3.48%.
Regarding `O=P1(N(CCCl)CCCl)Nc2ccccc2N1`, the inhibition was inactive: -10.7%.
On to `COc1ccc2nc(NP(=O)(c3ccccc3)c3ccccc3)sc2c1`, for which the inhibition was inactive: 8.3%.
For the compound `COc1cc(I)ccc1[As](=O)(O)O`, the inhibition was inactive: 5.74%.
For `Cc1c2c(nc3ccccc13)SC(C(Cl)Cl)C2` (centres undefined), the inhibition is inactive: -74%.
On to `O=C(OC1CN2CCC1CC2)C12CC3CC(CC(C3)C1)C2` (centres undefined), for which the inhibition was inactive: 9.09%.
Turning to `Cc1cc(=O)[nH]c(N[N+](=O)[O-])n1`, the inhibition was inactive: 21.3%.
With `CCC(C)N(CC(C)C)C(=S)SC(NC(C)=O)C(Cl)(Cl)Cl` (centres undefined), the inhibition was inactive: 15.9%.
Regarding `O=C(OC1CN2CCC1CC2)c1cccc([N+](=O)[O-])c1` (centres undefined), the inhibition was inactive: -0.44%.
As for `CSc1ccc(Nc2c([N+](=O)[O-])cc([N+](=O)[O-])cc2[N+](=O)[O-])cc1`, the inhibition is inactive: 26.4%.
The result for `CCOC(=O)c1ccc(NC(=O)C(C)(CCl)SC)cc1` (centres undefined) reads inactive: -105%; that for `O=C(O)C(=O)c1ccc(N(CCCl)CCCl)cc1`, inactive: 5.04%; that for `O=C(COc1ccccc1)OC1CN2CCC1CC2` (centres undefined), inactive: 16.3%.
For `O=C(Nc1ccncc1[N+](=O)[O-])c1ccc([N+](=O)[O-])cc1[N+](=O)[O-]`, the inhibition was inactive: 10.3%.
Consider `COP1(=S)c2c(C)nn(CCC#N)c2N=C(c2ccc(F)cc2)N1C` (centres undefined), for which the inhibition was inactive: 11.8%.
For `COC(=O)C1(C)COP(=O)(N2CCCC2)OC1` (centres undefined), the inhibition was inactive: -7.2%.
For the compound `O=P(Nc1ccccn1)(c1cccc2ccccc12)c1cccc2ccccc12`, the inhibition was inactive: 12.4%.
The result for `Cc1cc(SC(NC=O)C(Cl)(Cl)Cl)ncn1` (centres undefined) reads inactive: 10%; that for `O=[N+]([O-])c1ccc(Nc2ccc(Oc3ccc([N+](=O)[O-])cc3[N+](=O)[O-])cc2)c([N+](=O)[O-])c1`, inactive: -14.7%.
With `CCOC(=O)Nc1cccc([As](=O)(O)O)c1` the figure was inactive: 9.37%.
The result for `COP(=O)(OC)N1CC1c1ccccc1` (centres undefined) reads inactive: -21.3%; that for `CCCCOc1ccc(C(=O)NCC2(N3CCCCC3)CCCCC2)cc1OC`, inactive: 15.9%; that for `Cc1cc(SC(NC(=O)c2ccccc2)C(Cl)(Cl)Cl)nc(C(C)C)n1` (centres undefined), inactive: 7.77%.
Take `CCOC(=O)Nc1ccc([As](=O)(O)O)c(O)c1`: the inhibition is inactive: 7.25%.
Consider `O=C(O)C(O)c1ccc(N(CCCl)CCCl)cc1` (centres undefined), for which the inhibition was inactive: 4.43%.
In the case of `CC1CCNP(=O)(N(CCCl)CCCl)O1` (centres undefined), the inhibition is inactive: 4.58%.
